PubChem BioAssay AID622 (Vanderbilt High Throughput Screening Facility, 2007)
Only a part is listed here, and it is no random draw. Some of these compounds have results that are not shown, active ones among them. Activity calls are given as the source filed them.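 How the source made its calls: active means fluorescence slope higher than the sample average by over 3 SD (cut at about -0.22 in these data, passing the limit was not always enough); inactive means the rest.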

Amino acid sequences for entries named in this document (tags omitted).
UniProt P62483, whole entry: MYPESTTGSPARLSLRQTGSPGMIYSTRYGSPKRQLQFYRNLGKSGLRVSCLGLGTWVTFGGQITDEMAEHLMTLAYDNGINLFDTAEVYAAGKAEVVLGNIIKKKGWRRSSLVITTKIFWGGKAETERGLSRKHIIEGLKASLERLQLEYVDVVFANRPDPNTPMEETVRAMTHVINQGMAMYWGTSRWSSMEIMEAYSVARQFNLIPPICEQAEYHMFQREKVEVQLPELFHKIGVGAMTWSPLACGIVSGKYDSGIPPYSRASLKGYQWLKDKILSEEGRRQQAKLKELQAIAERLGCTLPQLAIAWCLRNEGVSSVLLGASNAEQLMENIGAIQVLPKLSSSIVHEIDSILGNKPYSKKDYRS

Each molecule was assayed against Voltage-gated potassium channel subunit beta-2 (Rattus norvegicus) (UniProt P62483) (assay: KvBeta enzyme negative modulators, primary screen, biochemical, NADPH fluorescence (AID 622;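 further: slope of raw intensity against log time taken from 70 to 1610 s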)). Details: recombinant KvBeta, 4-cyanobenzaldehyde reduction, at 10 µM, stronger effect = higher value.
For `O=C(OC1CN2CCC1CC2)C(CO)(c1ccccc1)c1ccccc1` (stereo unspecified), the fluorescence slope was inactive: -0.511.
